The values below are quoted from earlier work in patent US10400006B2, “Estrogen receptor modulators” (THE REGENTS OF THE UNIVERSITY OF CALIFORNIA, priority 2014, dated 2019).

Protein sequences, listed by entry. Tags and fused reporters are not part of them.
UniProt P03372, whole entry: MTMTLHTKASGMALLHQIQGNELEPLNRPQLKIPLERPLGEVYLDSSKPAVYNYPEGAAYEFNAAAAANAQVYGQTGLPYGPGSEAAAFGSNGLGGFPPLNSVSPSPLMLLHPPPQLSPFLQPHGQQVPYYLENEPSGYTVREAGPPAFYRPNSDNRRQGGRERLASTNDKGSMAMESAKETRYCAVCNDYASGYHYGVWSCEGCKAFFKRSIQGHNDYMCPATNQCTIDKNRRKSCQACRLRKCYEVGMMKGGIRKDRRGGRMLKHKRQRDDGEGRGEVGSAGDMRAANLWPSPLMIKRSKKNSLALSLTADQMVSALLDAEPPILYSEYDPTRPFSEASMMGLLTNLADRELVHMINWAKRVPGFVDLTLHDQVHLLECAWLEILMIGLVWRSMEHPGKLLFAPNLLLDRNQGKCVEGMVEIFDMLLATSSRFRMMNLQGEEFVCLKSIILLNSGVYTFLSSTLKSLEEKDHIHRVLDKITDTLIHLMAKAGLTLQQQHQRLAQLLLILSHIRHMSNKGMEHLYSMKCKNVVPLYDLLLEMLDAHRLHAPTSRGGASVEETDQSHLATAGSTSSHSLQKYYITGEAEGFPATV

For the data set, the target named is ER (Homo sapiens, UniProt P03372). Conditions: FES-PET studies; cited from earlier work.

Take `C[C@]12CC[C@@H]3c4ccc(O)cc4C[C@@H](CCCCCCCCC[S+]([O-])CCCC(F)(F)C(F)(F)F)[C@H]3[C@@H]1CC[C@@H]2O` (stereo partly shown) [fulvestrant]: the “patients with significant residual ER availability in tumors during therapy” value is listed as 38%.
